# Measurements as given in patent US20240024488A1, “COMPOUNDS AND USES THEREOF” (Foghorn Therapeutics Inc., priority 2020, published 2024).
# Chains of the proteins cited; added tags and fusions are not shown.
# UniProt P51532, whole entry: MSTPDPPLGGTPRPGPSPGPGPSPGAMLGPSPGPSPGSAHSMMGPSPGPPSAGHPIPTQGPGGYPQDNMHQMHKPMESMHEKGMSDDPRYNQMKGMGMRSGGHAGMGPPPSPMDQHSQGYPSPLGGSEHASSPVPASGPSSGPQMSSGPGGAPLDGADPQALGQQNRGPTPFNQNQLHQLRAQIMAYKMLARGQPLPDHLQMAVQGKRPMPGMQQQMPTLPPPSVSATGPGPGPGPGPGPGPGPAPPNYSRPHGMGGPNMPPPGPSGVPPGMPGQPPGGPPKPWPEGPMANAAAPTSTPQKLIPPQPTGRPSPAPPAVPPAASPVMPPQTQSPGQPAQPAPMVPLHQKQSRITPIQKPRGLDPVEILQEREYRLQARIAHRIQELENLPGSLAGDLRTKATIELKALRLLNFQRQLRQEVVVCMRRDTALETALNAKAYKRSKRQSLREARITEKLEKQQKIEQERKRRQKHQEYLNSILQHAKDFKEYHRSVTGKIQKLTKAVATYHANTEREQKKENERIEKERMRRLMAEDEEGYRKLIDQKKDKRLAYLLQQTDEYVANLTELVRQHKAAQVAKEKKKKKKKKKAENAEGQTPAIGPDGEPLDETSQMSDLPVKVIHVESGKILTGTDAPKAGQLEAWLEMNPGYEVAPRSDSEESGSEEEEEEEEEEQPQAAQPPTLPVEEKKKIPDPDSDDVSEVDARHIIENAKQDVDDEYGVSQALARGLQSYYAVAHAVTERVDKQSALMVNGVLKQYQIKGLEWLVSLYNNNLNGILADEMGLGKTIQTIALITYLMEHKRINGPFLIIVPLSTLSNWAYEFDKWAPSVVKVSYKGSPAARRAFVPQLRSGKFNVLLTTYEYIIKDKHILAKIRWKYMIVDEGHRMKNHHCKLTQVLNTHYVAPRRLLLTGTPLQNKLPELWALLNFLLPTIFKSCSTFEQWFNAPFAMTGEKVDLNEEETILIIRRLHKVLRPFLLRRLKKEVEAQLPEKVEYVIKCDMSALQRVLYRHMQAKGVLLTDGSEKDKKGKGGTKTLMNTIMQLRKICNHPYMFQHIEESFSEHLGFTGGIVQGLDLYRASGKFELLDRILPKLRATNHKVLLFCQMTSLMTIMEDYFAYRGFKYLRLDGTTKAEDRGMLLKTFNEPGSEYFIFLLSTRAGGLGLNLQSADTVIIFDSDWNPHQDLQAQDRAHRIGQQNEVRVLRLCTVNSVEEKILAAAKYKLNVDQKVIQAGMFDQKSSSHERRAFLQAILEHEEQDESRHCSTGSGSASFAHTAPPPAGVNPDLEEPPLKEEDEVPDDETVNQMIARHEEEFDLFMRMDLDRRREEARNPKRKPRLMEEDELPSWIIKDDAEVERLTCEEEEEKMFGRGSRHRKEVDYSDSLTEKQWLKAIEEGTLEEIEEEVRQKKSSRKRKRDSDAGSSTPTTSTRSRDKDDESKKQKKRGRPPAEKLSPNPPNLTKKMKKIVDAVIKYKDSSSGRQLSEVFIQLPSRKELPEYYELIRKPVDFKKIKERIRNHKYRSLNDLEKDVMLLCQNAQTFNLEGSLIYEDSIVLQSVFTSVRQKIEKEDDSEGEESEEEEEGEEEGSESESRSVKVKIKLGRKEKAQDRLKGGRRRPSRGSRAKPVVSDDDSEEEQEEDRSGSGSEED
# Structures can show the parent of a compound that is named as a salt.
# Target: T1, HiBit-BRG1 fusion protein (Homo sapiens, UniProt P51532)
# T1 construct: expressed in transfected cells
# Test: HiBiT-BRG1 cell-based degradation assay (Nano-Glo HiBiT Lytic Detection, 24 h)
# Details: HeLa, read-out: BRG1 HiBit Degradation Maximum (%)
# Protocol: Procedure: A stable HeLa cell line expressing HiBiT-BRM was generated. On day 0, 5000 cells were seeded in 40 μL of media into each well of 384-well cell culture plates. […] Subsequently plates were incubated for 24 h in a standard tissue culture incubator and equilibrated at room temperature for 15 minutes. Nano-Glo HiBiT Lytic Detection System (Promega N3050) reagent was freshly prepared and 20 ul was added to each well. Upon addition of this LgBit-containing reagent, the HiBiT and LgBiT proteins associate to form the luminescent NanoBiT luciferase. The plates were shaken for 10 minutes at room temperature and the bioluminescence read using an EnVision plate reader (PerkinElmer).
# For measurement of BRG1 degradation, a stable HeLa cell line expressing HiBit-BRG1 and LgBit was generated. The same protocol as above was then followed.
# The degradation % was calculated using the following formula: % degradation=100%−100%×(LumSample−LumLC)/(LumHC−LumLC). DMSO treated cells are employed as High Control (HC) and 2 μM of a known BRM/BRG1 degrader standard treated cells are employed as Low Control (LC).
row,Compound,Dmax [%]
1,"Cc1ncsc1-c1ccc([C@H](C)NC(=O)[C@@H]2C[C@@H](O)CN2C(=O)[C@@H](c2cc(N3CCN(CCC(=O)N4CC(c5cc6cc(-c7ccccc7O)nnc6[nH]5)C4)CC3)no2)C(C)C)cc1 (racemic) [Compound 268, (2S,4R)-4-hydroxy-1-[(2R)-2-{3-[4-(3-{3-[3-(2-hydroxyphenyl)-7H-pyrrolo[2,3-c]pyridazin-6-yl]azetidin-1-yl}-3-oxopropyl)piperazin-1-yl]-1,2-oxazol-5-yl}-3-methylbutanoyl]-N-[(1S)-1-[4-(4-methyl-1,3-thiazol-5-yl)phenyl]ethyl]pyrrolidine-2-carboxamide]",> 75
2,"Cc1ncsc1-c1ccc([C@H](C)NC(=O)[C@@H]2C[C@@H](O)CN2C(=O)[C@@H](c2cc(C3CCN(C(=O)N4CCc5[nH]c6nnc(-c7ccccc7O)cc6c5C4)CC3)no2)C(C)C)cc1 [Compound 105, (2S,4R)-4-hydroxy-1-((R)-2-(3-(1-(3-(2-hydroxyphenyl)-6,7,8,9-tetrahydro-5H-pyrido[3′,4′:4,5]pyrrolo[2,3-c]pyridazine-6-carbonyl)piperidin-4-yl)isoxazol-5-yl)-3-methylbutanoyl)-N—((S)-1-(4-(4-methylthiazol-5-yl)phenyl)ethyl)pyrrolidine-2-carboxamide]",< 50
3,"Cc1ncsc1-c1ccc([C@H](C)NC(=O)[C@@H]2C[C@@H](O)CN2C(=O)[C@@H](c2cc(OCCN3CC(c4cc5cc(-c6ccccc6O)nnc5[nH]4)C3)no2)C(C)C)cc1 [Compound 14, (2S,4R)-4-hydroxy-1-((R)-2-(3-(2-(3-(3-(2-hydroxyphenyl)-7H-pyrrolo[2,3-c]pyridazin-6-yl)azetidin-1-yl)ethoxy)isoxazol-5-yl)-3-methylbutanoyl)-N—((S)-1-(4-(4-methylthiazol-5-yl)phenyl)ethyl)pyrrolidine-2-carboxamide formate]",< 50
4,"Cc1ncsc1-c1ccc([C@H](C)NC(=O)[C@@H]2C[C@@H](O)CN2C(=O)[C@@H](c2cc(N3CCN(CCN4CC(c5cc6cc(-c7ccccc7O)nnc6[nH]5)C4)CC3)no2)C(C)C)cc1 (racemic) [Compound 273, (2S,4R)-4-hydroxy-1-[(2R)-2-{3-[4-(2-{3-[3-(2-hydroxyphenyl)-7H-pyrrolo[2,3-c]pyridazin-6-yl]azetidin-1-yl}ethyl)piperazin-1-yl]-1,2-oxazol-5-yl}-3-methylbutanoyl]-N-[(1S)-1-[4-(4-methyl-1,3-thiazol-5-yl)phenyl]ethyl]pyrrolidine-2-carboxamide]",< 50
5,"Cc1ncsc1-c1ccc([C@H](C)NC(=O)[C@@H]2C[C@@H](O)CN2C(=O)[C@@H](c2cc(N3CCN(C(=O)N4CC(c5cc6cc(-c7ccccc7O)nnc6[nH]5)C4)CC3)no2)C(C)C)cc1 (racemic) [Compound 124, (2S,4R)-4-hydroxy-1-[(2R)-2-[3-(4-{3-[3-(2-hydroxyphenyl)-7H-pyrrolo[2,3-c]pyridazin-6-yl]azetidine-1-carbonyl}piperazin-1-yl)-1,2-oxazol-5-yl]-3-methylbutanoyl]-N-[(1S)-1-[4-(4-methyl-1,3-thiazol-5-yl)phenyl]ethyl]pyrrolidine-2-carboxamide]",> 75
6,"Cc1ncsc1-c1ccc([C@H](C)NC(=O)[C@@H]2C[C@@H](O)CN2C(=O)[C@@H](c2cc(OCCN3CC(c4c[nH]c5nnc(-c6ccccc6O)cc45)C3)no2)C(C)C)cc1 [Compound 15, (2S,4R)-4-hydroxy-1-((R)-2-(3-(2-(3-(3-(2-hydroxyphenyl)-7H-pyrrolo[2,3-c]pyridazin-5-yl)azetidin-1-yl)ethoxy)isoxazol-5-yl)-3-methylbutanoyl)-N—((S)-1-(4-(4-methylthiazol-5-yl)phenyl)ethyl)pyrrolidine-2-carboxamide formate]",< 50
